This test deals with in vivo biotinylated HLA-A*0101-BSPHAT heavy chain folded with ß2m (human). Nature of the test: ELISA.

The values below come from PMC2244712, “One-Pot, Mix-and-Read Peptide-MHC Tetramers” (PLoS ONE, 2008).

“CMV pp65 363-373 peptide (from UniProt P06725 363-373)” yielded a % folding of 96%.
